Our source for the Solubility values is US10227281B2, “Preparation of 2,6- and 2,7-disubstituted anthraquinone derivates” (BASF SE, priority 2014, dated 2019).

A short description of the series: Determination of the solubility of anthraquinone derivatives in xylene/diisobutylcarbinol. As to conditions: mixture of xylene (50 volume-%) and diisobutylcarbinol (50 volume-%), 22° C., quinone form.

As usually defined, the Solubility is the dissolved amount per volume that the medium holds. In the case of “2,6-(1,5-dimethy)-nonylanthracene-9,10-dione and 2,7-(1,5-dimethy)-nonylanthracene-9,10-dione [Example 6]”, the Solubility turned out to be 390 mM.
